Results taken from patent publication US20210115040A1, “OGA INHIBITOR COMPOUNDS” (Janssen Pharmaceutica NV, priority 2018, published 2021).

Amino acid sequences for entries named in this document (tags omitted).
UniProt O60502, whole entry: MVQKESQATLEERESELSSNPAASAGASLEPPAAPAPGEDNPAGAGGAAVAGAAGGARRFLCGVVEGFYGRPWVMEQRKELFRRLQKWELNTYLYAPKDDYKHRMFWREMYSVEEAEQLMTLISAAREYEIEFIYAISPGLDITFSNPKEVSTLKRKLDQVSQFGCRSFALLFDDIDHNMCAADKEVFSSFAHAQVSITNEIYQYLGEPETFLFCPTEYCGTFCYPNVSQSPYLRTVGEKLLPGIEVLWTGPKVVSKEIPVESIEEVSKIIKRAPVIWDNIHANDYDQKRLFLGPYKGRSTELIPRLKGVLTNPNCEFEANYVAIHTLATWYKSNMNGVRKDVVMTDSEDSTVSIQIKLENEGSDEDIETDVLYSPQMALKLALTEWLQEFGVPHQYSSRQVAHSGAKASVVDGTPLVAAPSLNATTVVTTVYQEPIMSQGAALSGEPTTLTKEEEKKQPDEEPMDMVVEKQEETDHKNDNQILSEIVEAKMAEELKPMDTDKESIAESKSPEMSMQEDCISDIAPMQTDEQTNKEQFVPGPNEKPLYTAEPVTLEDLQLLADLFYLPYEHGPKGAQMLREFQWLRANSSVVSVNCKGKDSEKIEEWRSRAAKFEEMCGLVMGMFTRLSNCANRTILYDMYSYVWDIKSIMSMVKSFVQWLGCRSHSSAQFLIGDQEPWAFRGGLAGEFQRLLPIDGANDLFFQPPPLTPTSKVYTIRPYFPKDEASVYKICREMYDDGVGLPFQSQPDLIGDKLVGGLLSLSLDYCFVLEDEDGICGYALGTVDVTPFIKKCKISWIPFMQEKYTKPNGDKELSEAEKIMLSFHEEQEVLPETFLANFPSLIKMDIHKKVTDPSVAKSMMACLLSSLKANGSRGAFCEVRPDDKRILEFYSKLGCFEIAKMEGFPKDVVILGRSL

Assays:
[1] = target: recombinant human Meningioma Expressed Antigen 5 (MGEA5), also referred to as O-GlcNAcase (OGA) (Homo sapiens, UniProt O60502); assay: OGA biochemical assay (inhibition of FM-GlcNAc hydrolysis, fluorescence); conditions: FM-GlcNAc substrate; for Enzymatic hOGA; pIC50: 6 h at room temperature; for Enzymatic Emax (%): maximal effect
Source text: The assay is based on the inhibition of the hydrolysis of fluorescein mono-β-D-N-Acetyl-Glucosamine (FM-GlcNAc) (Mariappa et al. 2015, Biochem J 470:255) by the recombinant human Meningioma Expressed Antigen 5 (MGEA5), also referred to as O-GlcNAcase (OGA). The hydrolysis FM-GlcNAc (Marker Gene technologies, cat #M1485) results in the formation of β-D-N-glucosamineacetate and fluorescein. The fluorescence of the latter can be measured at excitation wavelength 485 nm and emission wavelength 538 nm. An increase in enzyme activity results in an increase in fluorescence signal. Full length OGA enzyme was purchased at OriGene (cat #TP322411). The enzyme was stored in 25 mM Tris.HCl, pH 7.3, 100 mM glycine, 10% glycerol at −20° C. Thiamet G and GlcNAcStatin were tested as reference compounds (Yuzwa et al. 2008 Nature Chemical Biology 4:483; Yuzwa et al. 2012 Nature Chemical Biology 8:393). The assay was performed in 200 mM Citrate/phosphate buffer supplemented with 0.005% Tween-20. 35.6 g Na2HPO4 2H2O (Sigma, #C0759) were dissolved in 1 L water to obtain a 200 mM solution. 19.2 g citric acid (Merck, #1.06580) was dissolved in 1 L water to obtain a 100 mM solution. pH of the sodiumphosphate solution was adjusted with the citric acid solution to 7.2. The buffer to stop the reaction consists of a 500 mM Carbonate buffer, pH 11.0. 734 mg FM-GlcNAc were dissolved in 5.48 mL DMSO to obtain a 250 mM solution and was stored at −20° C. OGA was used at a 2 nM concentration and FM-GlcNAc at a 100 uM final concentration. Dilutions were prepared in assay buffer.
50 nl of a compound dissolved in DMSO was dispensed on Black Proxiplate™ 384 Plus Assay plates (Perkin Elmer, #6008269) and 3 μl fl-OGA enzyme mix added subsequently. Plates were pre-incubated for 60 min at room temperature and then 2 μl FM-GlcNAc substrate mix added. […] Plates were briefly centrifuged for 1 min at 1000 rpm and incubate at room temperature for 6 h. To stop the reaction 5 μl STOP buffer were added and plates centrifuge again 1 min at 1000 rpm. Fluorescence was quantified in the Thermo Scientific Fluoroskan Ascent or the PerkinElmer EnVision with excitation wavelength 485 nm and emission wavelength 538 nm.
For analysis a best-fit curve is fitted by a minimum sum of squares method. From this an IC50 value and Hill coefficient was obtained. High control (no inhibitor) and low control (saturating concentrations of standard inhibitor) were used to define the minimum and maximum values.

OGA = OGA (Homo sapiens, UniProt O60502); assay: OGA cellular assay (ICC detection of O-GlcNAcylated proteins in HEK293 cells inducible for P301L mutant human Tau); conditions: for Cellular hOGA; pEC50: 6 hours incubation; for Cellular Emax (%): maximum = Thiamet G 200 uM
Method: HEK293 cells inducible for P301L mutant human Tau (isoform 2N4R) were established at Janssen. Thiamet-G was used for both plate validation (high control) and as reference compound (reference EC50 assay validation). OGA inhibition is evaluated through the immunocytochemical (ICC) detection of O-GlcNAcylated proteins by the use of a monoclonal antibody (CTD110.6; Cell Signaling, #9875) detecting 0-GlcNAcylated residues as previously described (Dorfmueller et al. 2010 Chemistry & biology, 17:1250). Inhibition of OGA will result in an increase of O-GlcNAcylated protein levels resulting in an increased signal in the experiment. Cell nuclei are stained with Hoechst to give a cell culture quality control and a rough estimate of immediate compounds toxicity, if any. ICC pictures are imaged with a Perkin Elmer Opera Phenix plate microscope and quantified with the provided software Perkin Elmer Harmony 4.1.
Cells were propagated in DMEM high Glucose (Sigma, #D5796) following standard procedures. 2 days before the cell assay cells are split, counted and seeded in Poly-D-Lysine (PDL) coated 96-wells (Greiner, #655946) plate at a cell density of 12,000 cells per cm^2 (4,000 cells per well) in 100 μl of Assay Medium (Low Glucose medium is used to reduce basal levels of GlcNAcylation) (Park et al. 2014 The Journal of biological chemistry 289:13519). At the day of compound test medium from assay plates was removed and replenished with 90 μl of fresh Assay Medium. 10 μl of compounds at a 10fold final concentration were added to the wells. Plates were centrifuged shortly before incubation in the cell incubator for 6 hours. DMSO concentration was set to 0.2%. Medium is discarded by applying vacuum. For staining of cells medium was removed and cells washed once with 100 μl D-PBS (Sigma, #D8537). From next step onwards unless other stated assay volume was always 50 μl and incubation was performed without agitation and at room temperature. Cells were fixed in 50 μl of a 4% paraformaldehyde (PFA, Alpha aesar, #043368) PBS solution for 15 minutes at room temperature. […] Before analysis samples were washed 2 times manually for 5 minutes in ICC base buffer.
Imaging is performed using Perkin Elmer Phenix Opera using a water 20× objective and recording 9 fields per well. Intensity readout at 488 nm is used as a measure of O-GlcNAcylation level of total proteins in wells. To assess potential toxicity of compounds nuclei were counted using the Hoechst staining. IC50-values are calculated using parametric non-linear regression model fitting. As a maximum inhibition Thiamet G at a 200 uM concentration is present on each plate. In addition, a concentration response of Thiamet G is calculated on each plate.

[2] = tested form: citrate (2 C6H8O7)

Enzymatic hOGA; pIC50 [1]	Enzymatic Emax (%) [1] [%]	Cellular hOGA; pEC50 (OGA)	Cellular Emax (%) (OGA)	Enzymatic hOGA; pIC50 [1, 2]	Enzymatic Emax (%) [1, 2] [%]	Cellular hOGA; pEC50 (OGA; [2])	Cellular Emax (%) (OGA; [2])	Structure (SMILES)
7.9	100	6.5	69					Cc1cc(C[C@H]2CCCN(C(C)c3cnc4nc(C)[nH]c4c3)C2)cc(C)n1 (stereo partly drawn)
6.5		<6	3					Cc1cc(O[C@@H]2CCN(C(C)c3ccc4sc(C)nc4n3)C2)cc(C)n1 (stereo partly drawn)
				6.2	93	<6	−2	Cc1cc(C[C@@H]2CCN([C@@H](C)c3cnc4sc(C)nc4c3)C2)cc(C)n1 (single isomer, unassigned)
				7.8	100	6.1	53	Cc1cc(C[C@@H]2CCN([C@H](C)c3cnc4sc(C)nc4c3)C2)cc(C)n1 (single isomer, unassigned)
